This passage reports IC50 results from ChEMBL document CHEMBL1156263, “Single agents with designed combination chemotherapy potential: synthesis and evaluation of substituted pyrimido[4,5-b]indoles as receptor tyrosine kinase and thymidylate synthase inhibitors and as antitumor agents” (J Med Chem, 2010).

pIC50: −log10 of the molar value.

The test is described as follows: Inhibition of Escherichia coli thymidylate synthase.

`Nc1nc2[nH]cc(CCc3ccc(C(=O)N[C@@H](CCC(=O)O)C(=O)O)cc3)c2c(=O)[nH]1` [PEMETREXED]: the pIC50 is 4.82.
